Data on one molecule can be found in the NIST ThermoML archive (doi:10.1016/j.jct.2011.04.006).

The conditions of the series: 298.15 K; 101.33 kPa; Liquid; Vibrating tube method.

± gives the expanded uncertainty stated by the source.

As to `CCCCOCCCC` [dibutyl ether], the mass density stood at 763.806 ± 0.13 kg/m3.

By mass density is commonly meant mass per unit of volume.
